The values that follow come from PubChem BioAssay AID2445 (The Scripps Research Institute Molecular Screening Center, 2010).

The chains behind the UniProt entries cited, without tags or fusion partners. Where a name states a change or a piece, a line headed by the entry shows the natural chain unless it says otherwise.
UniProt P30559: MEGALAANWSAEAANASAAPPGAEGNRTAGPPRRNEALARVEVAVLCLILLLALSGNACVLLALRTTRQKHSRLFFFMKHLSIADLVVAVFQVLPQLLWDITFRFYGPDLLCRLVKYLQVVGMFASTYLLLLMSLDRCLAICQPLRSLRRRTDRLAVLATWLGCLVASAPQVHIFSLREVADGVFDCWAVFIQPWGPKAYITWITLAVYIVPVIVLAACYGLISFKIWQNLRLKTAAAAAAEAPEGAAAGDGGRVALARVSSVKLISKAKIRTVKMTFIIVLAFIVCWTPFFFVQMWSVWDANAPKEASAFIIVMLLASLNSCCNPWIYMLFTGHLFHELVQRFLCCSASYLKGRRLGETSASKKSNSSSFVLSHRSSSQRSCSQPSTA

The entries are a selection whose mix differs from that of the whole data set. Calls of active or inactive are those of the source.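 How the source made its calls: active means activation above that plate's cutoff, the mean activation of tested compounds plus 3 SD (cut at about 6.6% in these data, passing the limit was not always enough); inactive means the rest.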

This assay deals with Oxytocin receptor (Homo sapiens) (UniProt P30559). The experiment in a line: human OXTR potentiators, primary screen, fluorescence, CHO-OTR cells, Fluo-8 calcium (AID 2445).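 Further: 100% uses oxytocin at 75 nM as the full agonist control.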 As to conditions: Fluo-8 calcium fluorescence, potentiator mode, at 3 µM, stronger effect = higher value, 0% = oxytocin EC15, 100% = EC100.
Regarding `CN(C)C(=O)OCCc1n(C)cc[n+]1C`, the activation was inactive: -3.39%.

As for `CC(C)=N/N=C(\N)N[N+](=O)[O-]`, the activation is inactive: 0.78%. The value for `CC1CCN(C(=O)Oc2c(Cl)cc(Cl)c3cccnc23)CC1` was inactive: -7.77%; that for `C[N+]1=C2C=CC=CC=C2SC12C([N+](=O)[O-])=CC([N+](=O)[O-])=C[C-]2[N+](=O)[O-]` (stereo not given) was inactive: -10.6%. On to `Nc1ccc([As](=O)(O)c2ccc(N)cc2)cc1`, for which the activation was inactive: -19.6%. On to `CCN(/C(=N/P(=O)(N1CCOCC1)N1CCOCC1)N1CCOCC1)c1ccc(OC)cc1`, for which the activation was inactive: 6.43%. `CC(=O)N1C2C3N(C(C)=O)C1C1N(C(C)=O)C(C(N1C(C)=O)N3C(C)=O)N2C(C)=O`: the activation is inactive: -3.39%. As for `O=[N+]([O-])c1cccc2n[nH]nc12`, the activation was inactive: -2.92%. Take `O=[N+]([O-])c1cc([N+](=O)[O-])c(CCNc2ccccc2)c([N+](=O)[O-])c1`: the activation is inactive: -14.6%.

As to `CCc1nc2c(n1)c1c(non1O)c1c2no[n+]1[O-]`, the activation was inactive: -8.28%. The value for `Cc1ccc(NP(=O)(Oc2ccccc2)Oc2ccccc2)nc1` was inactive: -5.37%; that for `COc1ccc(C2=NCC(CBr)S2)cc1` (stereo not given) was inactive: 6.6%; that for `O=[N+]([O-])c1cccc(NC2=NCC(CBr)S2)c1` (stereo not given) was inactive: -4.87%. As to `CC(C)(C)C(=O)NC(Sc1ccncn1)C(Cl)(Cl)Cl` (stereo not given), the activation was inactive: 0.87%.

`O=[N+]([O-])c1ncn(CCn2ncnc2[N+](=O)[O-])n1`: the activation is inactive: -5.97%. As to `O=C(Nc1cc([As](=O)(O)O)ccc1O)c1ccccc1`, the activation is inactive: -12.9%. The value for `CCN(N=Nc1nonc1N)c1nonc1N` was inactive: 1.26%. As for `O=[N+]([O-])c1cc([N+](=O)[O-])c(CCN2CCOCC2)c([N+](=O)[O-])c1`, the figure is inactive: -8.02%; as for `Cc1ccc(NP(=O)(Oc2ccccc2F)Oc2ccccc2F)nc1`, inactive: 0.25%. Take `CCOP(=O)(Nc1ccccc1)OCC`: the activation was inactive: 4.86%. With `Cc1cc(SC(NC(=O)c2ccc(F)cc2)C(Cl)(Cl)Cl)ncn1` (stereo not given), the activation is inactive: -5.2%. Consider `O=C(O)c1ccccc1[As](=O)(O)O`, for which the activation was inactive: -1.91%. Turning to `CC(=O)Nc1ccc([As](=O)(O)O)cc1`, the activation was inactive: -5.3%. Turning to `O=P(Nc1nc2ccc(Cl)cc2s1)(c1ccccc1)c1ccccc1`, the activation is inactive: -13.6%. Consider `CC(C)CC(=O)NC(Sc1ccc(Cl)cc1)C(Cl)(Cl)Cl` (stereo not given), for which the activation is inactive: -3.48%. Turning to `Nc1cc(N)c2nonc2c1[N+](=O)[O-]`, the activation was inactive: 4.14%. For `Cc1c2non([O-])c-2c(C)[n+](=O)[n+]1[O-]`, the activation is inactive: -5.24%. As for `O=C(NC(Sc1ccncn1)C(Cl)(Cl)Cl)c1ccccc1` (stereo not given), the activation is inactive: -2.4%. In the case of `Oc1ccccc1CNc1ccccn1`, the activation is inactive: -3.54%. Consider `Cc1ccc(OP(=O)(Nc2nccs2)Oc2ccc(C)cc2)cc1`, for which the activation was inactive: -8.03%. `COc1ccccc1OP(=O)(Nc1ccc(C)cn1)Oc1ccccc1OC`: the activation was inactive: -3.99%. As to `Clc1ccc(Cl)c(NC2=NCC(CBr)S2)c1` (stereo not given), the activation is inactive: 4.4%. `CN1CCCC(OC(=O)C(c2ccccc2)c2ccccc2)C1` (stereo not given): the activation was inactive: -3.71%. As for `NC(=O)c1cc([N+](=O)[O-])cc([N+](=O)[O-])c1N`, the activation was inactive: -8.45%. As for `Cc1ccc(N/C(=N/P(=O)(N2CCOCC2)N2CCOCC2)N2CCOCC2)cc1`, the activation was inactive: -8.34%. As for `CC(=O)Nc1ccc(Oc2c([N+](=O)[O-])cc([N+](=O)[O-])cc2[N+](=O)[O-])cc1`, the figure is inactive: -15.3%; as for `CC(=O)Nc1ccc([As](=O)(O)O)c(O)c1`, inactive: -12%; as for `CC(=O)c1ccc(N2CC2c2ccncc2)cc1` (stereo not given), inactive: -2.83%.

On to `C[C@@H]1C=CCP(=O)(Oc2ccccc2)O1` (stereo not given in full), for which the activation is inactive: -7.64%.

On to `C[C@H]1OP(=O)(Oc2ccccc2)C[C@@H]2O[C@@H]21` (stereo not given in full), for which the activation was inactive: -2.61%. With `Cc1ccccc1CN(C)C(=O)COC(=O)C(O)(c1ccccc1)c1ccccc1`, the activation is inactive: -9.26%.

For `CC(C)(C)C(=O)NC(Sc1ccccc1)C(Cl)(Cl)Cl` (stereo not given), the activation was inactive: 4.54%. For `CCOc1ccc(C2=NCC(CBr)S2)cc1` (stereo not given), the activation was inactive: -10.3%. Regarding `O=P1(Nc2nc3ccc(Cl)cc3s2)COc2ccccc2O1` (stereo not given), the activation is inactive: -11%. Regarding `CN(C)C(=O)Oc1noc2ccccc12`, the activation was inactive: 2.83%. As for `Cc1ccccc1OP(=O)(Nc1ccccn1)Oc1ccccc1C`, the figure is inactive: -10.8%; as for `CC(NC(=O)COC(=O)C(O)(c1ccccc1)c1ccccc1)c1ccccc1` (stereo not given), inactive: -10.5%; as for `CC(=O)NC(SC(=S)N(CC(C)C)CC(C)C)C(Cl)(Cl)Cl` (stereo not given), inactive: -7.77%. On to `Cc1ccc(OP(=O)(Nc2ccccn2)Oc2ccc(C)cc2)cc1`, for which the activation was inactive: -10.3%.

Turning to `COC(=O)c1cc2c(s1)N=C(c1ccccc1)N(C)P2(=O)N1CCOCC1` (stereo not given), the activation is inactive: -23%. Take `CCC(=O)N1C2C3N(C(=O)CC)C1C1N(C(=O)CC)C(C(N1C(=O)CC)N3C(=O)CC)N2C(=O)CC`: the activation was inactive: -6.17%.

`O=C(OC1CN2CCC1CC2)c1ccccc1` (stereo not given): the activation was inactive: -11.4%. Regarding `O=C(NC1CCS(=O)(=O)C1)NP(=S)(Oc1ccccc1)Oc1ccccc1` (stereo not given), the activation was inactive: -13.6%.

Take `CCNC(=S)/N=C(\N)N[N+](=O)[O-]`: the activation was inactive: -1.39%. `Cc1ccc(NP(=O)(Oc2cccc(C)c2)Oc2cccc(C)c2)nc1`: the activation was inactive: -13.8%. On to `CCOC(=O)NC(Sc1ccccc1)C(Cl)(Cl)Cl` (stereo not given), for which the activation was inactive: -4.62%. `c1ccc(-c2nn[nH]n2)c(-c2nn[nH]n2)c1`: the activation was inactive: -6.3%. Take `Nc1ccc([As](=O)(O)c2ccc([N+](=O)[O-])cc2)cc1`: the activation was inactive: -2.69%.

On to `C(Cc1nn[nH]n1)Cc1nn[nH]n1`, for which the activation was inactive: 0.08%.

With `O=C(OC1CN2CCC1CC2)c1cccc(Cl)c1` (stereo not given), the activation was inactive: 4.32%.

As for `CC(=O)NC(SC(=S)N(C)C)C(Cl)(Cl)Cl` (stereo not given), the activation is inactive: -0.05%. In the case of `O=[N+]([O-])c1ncn(CCn2cnc([N+](=O)[O-])n2)n1`, the activation was inactive: -9%. Regarding `O=[N+]([O-])c1ccc(O)c(/C=N/Nc2ccc([N+](=O)[O-])cc2[N+](=O)[O-])c1`, the activation is inactive: -15%. As to `O=[As](O)(c1ccccc1)c1ccc(O)cc1`, the activation is inactive: -7.7%. On to `C[C@H]1OP(=O)(Oc2ccccc2)[C@H](O)[C@H](O)[C@H]1N=[N+]=[N-]` (stereo not given in full), for which the activation was inactive: -1.6%. The value for `O=P(Nc1nc2ccccc2s1)(c1ccccc1)c1ccccc1` was inactive: -0.38%; that for `CN(C)C1(CNC(=O)c2ccc(Cl)c(S(N)(=O)=O)c2)CCCCC1` was inactive: -3.05%; that for `O=P(Nc1ccccn1)(c1ccc(Br)cc1)c1ccc(Br)cc1` was inactive: 6.07%. In the case of `c1nnnn1CCn1cnnn1`, the activation is inactive: -0.11%. Consider `O=P(Nc1nccs1)(c1ccccc1)c1ccccc1`, for which the activation was inactive: -3.96%. Take `CC(C)C(=O)NC(Sc1ccccc1)C(Cl)(Cl)Cl` (stereo not given): the activation was inactive: 0.42%. Turning to `CC1(CBr)Cn2c(nc3ccccc3c2=O)S1` (stereo not given), the activation is inactive: -9.17%. The value for `O=[As](O)(c1ccccc1Br)c1ccccc1Br` was inactive: -9.43%; that for `CC(C)/C=N\N=C(\N)N[N+](=O)[O-]` was inactive: -13.3%; that for `COc1ccccc1CNC(=O)COC(=O)C(O)(c1ccccc1)c1ccccc1` was inactive: -11.2%. For the compound `CC(C)(C)C(=O)NC(Sc1ncccn1)C(Cl)(Cl)Cl` (stereo not given), the activation is inactive: 0.19%.

`Clc1n[nH]nc1-c1nn[nH][15n]1`: the activation was inactive: -3.38%. For `CN(CCCl)Cc1cc(Cl)c(NC2=NCCN2)c(Cl)c1`, the activation was inactive: 2.87%. Turning to `CCOP(=O)(Nc1ccc(C)cn1)OCC`, the activation was inactive: -5.44%. For the compound `CCOP(=O)(NC(=NC(C)c1ccccc1)NC(C)c1ccccc1)OCC` (stereo not given), the activation is inactive: -11.5%. Take `CCC1=CC2Cc3nc4ccc(Cl)cc4c(N)c3C(C1)C2` (stereo not given): the activation was inactive: -13%. Regarding `O=P1(Nc2ccccn2)COc2ccccc2OC1`, the activation is inactive: -20.5%. With `NS(=O)(=O)c1cccc(NC(=O)COC(=O)C(O)(c2ccccc2)c2ccccc2)c1`, the activation was inactive: -0.53%. `O=P1(Nc2ccc(Br)cn2)COc2ccccc2OC1`: the activation was inactive: -7.64%. In the case of `Cc1ccc(OCC(=O)OC2CN3CCC2CC3)cc1` (stereo not given), the activation was inactive: 0.43%. `O=[As](O)(c1cccs1)c1cccs1`: the activation was inactive: -10.9%. The value for `Nc1cccc([As](=O)(O)c2ccccc2)c1` was inactive: -1.86%. As to `O=P1(Nc2ncccn2)COc2ccccc2OC1`, the activation is inactive: -7.71%.

For the compound `O=C(/C=C/c1ccccc1)OC1CN2CCC1CC2` (stereo not given), the activation was inactive: -16.9%. Consider `CN(C)C1(CNC(=O)c2ccc(S(C)(=O)=O)cc2)CCCCC1`, for which the activation was inactive: -0.33%. On to `Cc1ccc(C(=O)OC2CN3CCC2CC3)cc1` (stereo not given), for which the activation is inactive: -0.22%.

`CC1CCC(C(C)C)C(OP(=O)(Nc2ccccn2)c2ccccc2)C1` (stereo not given): the activation is inactive: -11%. Consider `Cc1nn(-c2ccccc2)c2c1P(=O)(N1CCOCC1)N(C)C(c1ccccc1)=N2` (stereo not given), for which the activation was inactive: -3.23%. For `CN(C(=O)Cc1ccc(Cl)c(Cl)c1)[C@H]1CC[C@@]2(CCCO2)C[C@@H]1N1CCCC1`, the activation was inactive: -0.98%. `CN(C)C(=O)c1cc([N+](=O)[O-])cc2c1-c1c(cc([N+](=O)[O-])cc1[N+](=O)[O-])C2=O`: the activation is inactive: -9.28%. Regarding `O=[N+]([O-])c1ccc2c(c1)nnn2O`, the activation is inactive: 0.22%.

`CCOP1(=S)c2c(C)nn(CCC#N)c2N=C(c2ccc(F)cc2)N1C` (stereo not given): the activation is inactive: 4.14%.

Take `CN(C(=O)Cc1ccccc1)[C@@H]1CC[C@]2(CCCO2)C[C@H]1N1CCCC1`: the activation is inactive: -3.99%.

As to `N#CCCN(C(=O)COC(=O)C(O)(c1ccccc1)c1ccccc1)c1ccc(F)cc1`, the activation was inactive: -9.2%. Consider `NC(=O)Nc1ccc([As](=O)(O)O)cc1`, for which the activation was inactive: 1.34%.
